# Values quoted from earlier work in PubChem BioAssay AID977611.
# Assays:
# Test in all cases: PubChem AID 977611
# [1] = molecular target: phenazine biosynthesis protein phzf; settings: PDB protein-ligand complexes, literature Kd; protein: phenazine biosynthesis protein phzf; PDB entry 1U1W
# [2] = molecular target: osmoprotection protein (prox); settings: PDB protein-ligand complexes, literature Kd; protein: osmoprotection protein (prox); PDB entry 1SW1
# [3] = molecular target: trp rna-binding attenuation protein; settings: PDB protein-ligand complexes, literature Kd; protein: trp rna-binding attenuation protein; PDB entry 1ADL
# [4] = molecular target: serum albumin; settings: PDB protein-ligand complexes, literature Kd; protein: serum albumin; PDB entry 1GNJ
# [5] = molecular target: glycogen phosphorylase b; settings: PDB protein-ligand complexes, literature Kd; protein: glycogen phosphorylase b; PDB entry 1GPY
# [6] = molecular target: cation-dependent mannose-6-phosphate receptor; settings: PDB protein-ligand complexes, literature Kd; protein: cation-dependent mannose-6-phosphate receptor; PDB entry 1M6P
# [7] = molecular target: cation-independent mannose 6-phosphate receptor; settings: PDB protein-ligand complexes, literature Kd, protein: cation-independent mannose 6-phosphate receptor
# [8] = molecular target: pol polyprotein; settings: PDB protein-ligand complexes, literature Kd; protein: pol polyprotein; PDB entry 1T7J
# [9] = molecular target: isopentenyl diphosphate delta-isomerase; settings: PDB protein-ligand complexes, literature Kd; protein: isopentenyl diphosphate delta-isomerase; PDB entry 1NFS
# [10] = molecular target: 1H62 A; settings: PDB protein-ligand complexes, literature Kd; PDB entry 1H62
# [11] = molecular target: phospholipase a2 isoform 3; settings: PDB protein-ligand complexes, literature Kd; protein: phospholipase a2 isoform 3; PDB entry 1TD7
# [12] = molecular target: antibody fab fragment; settings: PDB protein-ligand complexes, literature Kd; protein: antibody fab fragment; PDB entry 1IND
# [13] = molecular target: auxin-binding protein 1; settings: PDB protein-ligand complexes, literature Kd; protein: auxin-binding protein 1; PDB entry 1LRH
# [14] = molecular target: anaerobic ribonucleotide-triphosphate reductase; settings: PDB protein-ligand complexes, literature Kd; protein: anaerobic ribonucleotide-triphosphate reductase; PDB entry 1H7A
# [15] = molecular target: neocarzinostatin; settings: PDB protein-ligand complexes, literature Kd; protein: neocarzinostatin; PDB entry 1O5P
# [16] = molecular target: uracil phosphoribosyltransferase; settings: PDB protein-ligand complexes, literature Kd; protein: uracil phosphoribosyltransferase; PDB entry 1JLR
# [17] = molecular target: farnesyltransferase; settings: PDB protein-ligand complexes, literature Kd; protein: farnesyltransferase; PDB entry 1FPP
# [18] = molecular target: 1H61 A; settings: PDB protein-ligand complexes, literature Kd; PDB entry 1H61
# [19] = molecular target: DNA gyrase b; settings: PDB protein-ligand complexes, literature Kd; protein: DNA gyrase b; PDB entry 1KZN
# [20] = molecular target: pyridoxal phosphate biosynthetic protein pdxj; settings: PDB protein-ligand complexes, literature Kd; protein: pyridoxal phosphate biosynthetic protein pdxj; PDB entry 1M5W
# [21] = molecular target: odorant-binding protein; settings: PDB protein-ligand complexes, literature Kd; protein: odorant-binding protein; PDB entry 1DZK
# [22] = molecular target: Major urinary protein 2, MUP chimera (MUPcd); settings: PDB protein-ligand complexes, literature Kd; protein: Major urinary protein 2, MUP chimera (MUPcd); PDB entry 2NND
# [23] = molecular target: major urinary protein; settings: PDB protein-ligand complexes, literature Kd; protein: major urinary protein; PDB entry 1QY1
# [24] = molecular target: neutrophil gelatinase-associated lipocalin; settings: PDB protein-ligand complexes, literature Kd; protein: neutrophil gelatinase-associated lipocalin; PDB entry 1L6M
# [25] = molecular target: hepatocyte growth factor receptor; settings: PDB protein-ligand complexes, literature Kd; protein: hepatocyte growth factor receptor; PDB entry 1R0P
# [26] = molecular target: oligo-peptide binding protein; settings: PDB protein-ligand complexes, literature Kd; protein: oligo-peptide binding protein; PDB entry 1QKA
# [27] = molecular target: alpha t cell receptor; settings: PDB protein-ligand complexes, literature Kd; protein: alpha t cell receptor; PDB entry 1G6R
# [28] = molecular target: troponin c, slow skeletal and cardiac muscles; settings: PDB protein-ligand complexes, literature Kd; protein: troponin c, slow skeletal and cardiac muscles; PDB entry 1LXF
# [29] = molecular target: glycogen phosphorylase; settings: PDB protein-ligand complexes, literature Kd; protein: glycogen phosphorylase; PDB entry 1L5S
# [30] = molecular target: flavodoxin; settings: PDB protein-ligand complexes, literature Kd, protein: flavodoxin
# [31] = molecular target: Alkanal monooxygenase, Bacterial Luciferase; settings: PDB protein-ligand complexes, literature Kd; protein: Alkanal monooxygenase, Bacterial Luciferase; PDB entry 3FGC
# [32] = molecular target: nadh oxidase; settings: PDB protein-ligand complexes, literature Kd; protein: nadh oxidase; PDB entry 1NOX
# [33] = molecular target: fmn-binding protein; settings: PDB protein-ligand complexes, literature Kd; protein: fmn-binding protein; PDB entry 1FLM
# [34] = molecular target: glutathione s-transferase class pi; settings: PDB protein-ligand complexes, literature Kd; protein: glutathione s-transferase class pi; PDB entry 1LBK
# [35] = molecular target: glutathione s-transferase; settings: PDB protein-ligand complexes, literature Kd; protein: glutathione s-transferase; PDB entry 1R4W
# [36] = molecular target: inhibitor of apoptosis protein 3; settings: PDB protein-ligand complexes, literature Kd; protein: inhibitor of apoptosis protein 3; PDB entry 1G3F
# [37] = molecular target: uridine phosphorylase; settings: PDB protein-ligand complexes, literature Kd; protein: uridine phosphorylase; PDB entry 1Q1G
# [38] = molecular target: 1RYH A; settings: PDB protein-ligand complexes, literature Kd; PDB entry 1RYH
smiles,measurement,setting,value
Nc1c(O)cccc1C(=O)O,Kd,[1],1400 nM
C[N+]1(C)CCC[C@H]1C(=O)O,Kd,[2],50 nM
CCCCC/C=C\C/C=C\C/C=C\C/C=C\CCCC(=O)O,Kd,[3],4400 nM
same,Kd,[4],91 nM
O=P(O)(O)OC[C@H]1O[C@H](O)[C@H](O)[C@@H](O)[C@@H]1O,Kd,[5],20000 nM
O=P(O)(O)OC[C@H]1O[C@H](O)[C@@H](O)[C@@H](O)[C@@H]1O,Kd,[6],8000 nM
same,Kd,[7]; PDB entry 1SYO,1 nM
same,Kd,[7]; PDB entry 1SZ0,1 nM
CC(C)CN(C[C@@H](O)[C@H](Cc1ccccc1)NC(=O)O[C@H]1CCOC1)S(=O)(=O)c1ccc(N)cc1,Kd,[8],2 nM
CN(C)CCOP(=O)(O)OP(=O)(O)O,Kd,[9],< 0.12 nM
C[C@]12C=CC(=O)C=C1CC[C@@H]1[C@@H]2CC[C@]2(C)C(=O)CC[C@@H]12,Kd,[10],17000 nM
O=C(O)c1cccnc1Nc1cccc(C(F)(F)F)c1,Kd,[11],43000 nM
O=C(O)CN(CC(=O)O)C[C@H](Cc1ccc(NC(=S)NCCO)cc1)N(CC(=O)O)CC(=O)O,Kd,[12],0.09 nM
O=C(O)Cc1cccc2ccccc12,Kd,[13],150 nM
Nc1ncnc2c1ncn2[C@H]1C[C@H](O)[C@@H](COP(=O)(O)OP(=O)(O)OP(=O)(O)O)O1,Kd,[14],19000 nM
CN[C@H]1[C@@H](O[C@@H]2/C3=C/C#C[C@H]4O[C@@]4([C@H]4COC(=O)O4)C#CC3=C[C@H]2OC(=O)c2c(O)ccc3c(C)cc(OC)cc23)O[C@H](C)[C@H](O)[C@@H]1O,Kd,[15],0.1 nM
Nc1nc2c(ncn2[C@@H]2O[C@H](COP(=O)(O)OP(=O)(O)OP(=O)(O)O)[C@@H](O)C2O)c(=O)[nH]1 (some centres not stated),Kd,[16],465000 nM
CC(C)=CCC/C(C)=C/CC/C(C)=C\COP(=O)(O)OP(=O)(O)O,Kd,[17],10 nM
C[C@]12C=CC(=O)C=C1CC[C@@H]1[C@@H]2C(=O)C[C@@]2(C)[C@H]1CC[C@]2(O)[C@@H](O)C=O,Kd,[18],13000 nM
CO[C@@H]1[C@@H](OC(=O)c2ccc(C)[nH]2)[C@@H](O)[C@H](Oc2ccc3c(O)c(NC(=O)c4ccc(O)c(CC=C(C)C)c4)c(=O)oc3c2Cl)OC1(C)C,Kd,[19],1.2 nM
CC(=O)[C@@H](O)[C@H](O)COP(=O)(O)O,Kd,[20],54000 nM
COc1nccnc1CC(C)C,Kd,[21],800 nM
same,Kd,[22],870 nM
same,Kd,[23],300 nM
O=C(O)c1cccc(O)c1O,Kd,[24],7.9 nM
COC(=O)[C@@]1(O)C[C@H]2O[C@]1(C)n1c3ccccc3c3c4c(c5c6ccccc6n2c5c31)C(=O)NC4,Kd,[25],10 nM
NCCCC[C@H](NC(=O)[C@H](CCCN=C(N)N)NC(=O)[C@@H](N)CCCCN)C(=O)O,Kd,[26],1200 nM
CC[C@H](C)[C@H](NC(=O)[C@@H](N)CO)C(=O)N[C@@H](Cc1ccc(O)cc1)C(=O)N[C@@H](CCCN=C(N)N)C(=O)N[C@@H](Cc1ccc(O)cc1)C(=O)N[C@@H](Cc1ccc(O)cc1)C(=O)NCC(=O)N[C@@H](CC(C)C)C(=O)O,Kd,[27],54000 nM
CC(C)COC[C@H](CN(Cc1ccccc1)c1ccccc1)N1CCCC1,Kd,[28],80000 nM
O=c1[nH]c(=O)c2[nH]c(=O)[nH]c2[nH]1,Kd,[29],550000 nM
Cc1cc2nc3c(=O)[nH]c(=O)nc-3n(C[C@H](O)[C@H](O)[C@H](O)COP(=O)(O)O)c2cc1C,Kd,[30]; PDB entry 1AKQ,0.79 nM
same,Kd,[30]; PDB entry 1AKR,0.82 nM
same,Kd,[30]; PDB entry 1AKT,3.2 nM
same,Kd,[30]; PDB entry 1AKW,2.6 nM
same,Kd,[30]; PDB entry 1AZL,2.4 nM
same,Kd,[30]; PDB entry 1C7F,0.3 nM
same,Kd,[30]; PDB entry 1CZK,1.5 nM
same,Kd,[30]; PDB entry 1CZL,0.71 nM
same,Kd,[30]; PDB entry 1CZR,1 nM
same,Kd,[31],120000 nM
same,Kd,[32],90 nM
same,Kd,[33],0.43 nM
N[C@@H](CCC(=O)N[C@@H](CS)C(=O)NCC(=O)O)C(=O)O,Kd,[34],668000 nM
same,Kd,[35],90000 nM
CC[C@H](C)[C@H](NC(=O)[C@@H]1CCCN1C(=O)[C@@H](NC(=O)[C@H](C)N)C(C)C)C(=O)N[C@@H](C)C(=O)N[C@@H](CCC(N)=O)C(=O)N[C@@H](CCCCN)C(=O)N[C@@H](CO)C(=O)N[C@@H](CCC(=O)O)C(=O)O,Kd,[36],430 nM
CSC[C@H]1N[C@@H](c2c[nH]c3c(=O)[nH]cnc23)[C@H](O)[C@@H]1O,Kd,[37],2.7 nM
Nc1nc2c(ncn2[C@@H]2O[C@H](COP(=O)(O)OP(=O)(O)NP(=O)(O)O)[C@@H](O)[C@H]2O)c(=O)[nH]1,Kd,[38],27.6 nM
